Target: ATP-dependent translocase ABCB1 (Homo sapiens, UniProt P08183)
Test: Inhibition of human MDR1 expressed in MDCK cells assessed as calcein AM accumulation after 30 mins by fluorescence assay
Type: cell-based

Sequences of proteins named here, by UniProt entry; tags and fusion partners are left off.
UniProt P08183, whole entry: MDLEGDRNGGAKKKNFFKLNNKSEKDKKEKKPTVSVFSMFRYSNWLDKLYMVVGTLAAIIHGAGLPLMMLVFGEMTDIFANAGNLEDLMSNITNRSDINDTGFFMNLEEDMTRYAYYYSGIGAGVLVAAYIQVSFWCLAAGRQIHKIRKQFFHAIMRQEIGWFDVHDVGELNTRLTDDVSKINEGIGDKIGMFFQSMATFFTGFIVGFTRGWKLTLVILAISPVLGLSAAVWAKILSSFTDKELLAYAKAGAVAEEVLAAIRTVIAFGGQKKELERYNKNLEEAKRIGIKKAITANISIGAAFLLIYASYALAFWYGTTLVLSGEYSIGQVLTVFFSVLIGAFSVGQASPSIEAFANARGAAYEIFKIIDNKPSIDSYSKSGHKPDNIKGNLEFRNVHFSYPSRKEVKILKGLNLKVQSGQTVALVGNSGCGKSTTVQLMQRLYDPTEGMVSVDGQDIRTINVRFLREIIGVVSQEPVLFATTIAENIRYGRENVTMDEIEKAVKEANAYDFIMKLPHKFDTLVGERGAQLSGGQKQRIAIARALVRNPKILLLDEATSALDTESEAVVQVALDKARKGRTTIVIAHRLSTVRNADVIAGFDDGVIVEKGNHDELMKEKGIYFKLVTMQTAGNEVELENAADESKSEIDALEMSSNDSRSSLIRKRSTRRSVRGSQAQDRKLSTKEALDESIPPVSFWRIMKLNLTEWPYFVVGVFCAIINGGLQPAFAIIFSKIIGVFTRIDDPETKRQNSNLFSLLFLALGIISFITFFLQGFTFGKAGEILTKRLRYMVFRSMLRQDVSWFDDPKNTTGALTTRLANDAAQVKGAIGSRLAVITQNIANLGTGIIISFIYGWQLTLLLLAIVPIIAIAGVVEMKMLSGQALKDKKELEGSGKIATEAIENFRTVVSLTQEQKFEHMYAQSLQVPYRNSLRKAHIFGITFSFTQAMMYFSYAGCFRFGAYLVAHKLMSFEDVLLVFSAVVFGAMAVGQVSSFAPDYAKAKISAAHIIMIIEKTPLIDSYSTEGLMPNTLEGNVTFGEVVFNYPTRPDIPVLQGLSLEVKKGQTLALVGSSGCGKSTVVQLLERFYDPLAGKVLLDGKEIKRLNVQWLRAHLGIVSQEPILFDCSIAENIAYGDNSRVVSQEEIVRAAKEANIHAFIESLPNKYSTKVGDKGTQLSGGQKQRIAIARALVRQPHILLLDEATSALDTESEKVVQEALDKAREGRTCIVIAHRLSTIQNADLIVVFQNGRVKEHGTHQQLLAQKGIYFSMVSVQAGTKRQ

Work on `COc1cc(C(=O)Nc2ccc(-c3cc(F)cc(F)c3)cc2[N+](=O)[O-])cc(OC)c1OC` yielded an IC50 of 2600 nM.
